Protein sequences, listed by entry. Tags and fused reporters are not part of them. Chains listed by the source or under a name are the forms on record and can include a tag or linker.
UniProt P35462, as listed by the source: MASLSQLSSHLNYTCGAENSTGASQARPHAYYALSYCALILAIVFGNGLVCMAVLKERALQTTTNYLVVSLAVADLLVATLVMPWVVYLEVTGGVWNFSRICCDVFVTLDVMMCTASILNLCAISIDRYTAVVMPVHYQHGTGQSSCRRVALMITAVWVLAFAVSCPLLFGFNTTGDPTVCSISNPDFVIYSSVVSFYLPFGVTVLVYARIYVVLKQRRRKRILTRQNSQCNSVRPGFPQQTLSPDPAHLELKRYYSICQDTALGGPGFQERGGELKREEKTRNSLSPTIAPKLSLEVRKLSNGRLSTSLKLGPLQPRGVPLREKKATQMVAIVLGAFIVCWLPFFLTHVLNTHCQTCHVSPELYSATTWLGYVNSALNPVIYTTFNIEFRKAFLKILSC

In BindingDB's records for PubMed 8301582 (Neuroscience Research Centre, 1994):

Biological target: D(3) dopamine receptor (Homo sapiens, UniProt P35462)

For `CCCN1CCCC(c2cccc(O)c2)C1` (stereo unspecified) [CAS_85976-54-1], the Ki was 340 nM.
